Experimental data from PubChem BioAssay AID602332 (National Center for Advancing Translational Sciences (NCATS), 2012).
Where “and” joins values, the source holds several entries; their conditions need not be identical. Equal entries are not always repeated. The list shows a part of the results, in another mix than the full data. Calls of active or inactive are those of the source. The call rests on the fitted dose curve; in most records, active means well fitted activation curve with a large enough effect; inconclusive means small, poorly fitted or top-dose-only effect; inactive means no such curve, though single readings can be large or run the other way.

Test: qHTS for Inducers of the Endoplasmic Reticulum Stress Response (ERSR) in Human Glioma: qHTS; further: % of control where 0% means no effect; nearly all actives have a fitted effect of over 35% in size
Conditions: U87-MG GRP78 promoter luciferase reporter, 16 h; stronger effect = higher value
In the case of `CN(CCCl)CCCl`, the activation is reported as inactive: -3.7% and inactive: -2.42%.
In the case of `CCC(=O)N(c1ccccc1)C1(COC)CCN(CCn2nnn(CC)c2=O)CC1`, the activation is reported as inactive: -2.18% and inactive: 1.83%.
With `CCC(=O)N(c1ccccc1)C1(COC)CCN(CCc2cccs2)CC1` the activation was inactive: -2.26% and inactive: -2.66%.
